The chains behind the UniProt entries cited, without tags or fusion partners. Where a name states a change or a piece, a line headed by the entry shows the natural chain unless it says otherwise.
UniProt P48775: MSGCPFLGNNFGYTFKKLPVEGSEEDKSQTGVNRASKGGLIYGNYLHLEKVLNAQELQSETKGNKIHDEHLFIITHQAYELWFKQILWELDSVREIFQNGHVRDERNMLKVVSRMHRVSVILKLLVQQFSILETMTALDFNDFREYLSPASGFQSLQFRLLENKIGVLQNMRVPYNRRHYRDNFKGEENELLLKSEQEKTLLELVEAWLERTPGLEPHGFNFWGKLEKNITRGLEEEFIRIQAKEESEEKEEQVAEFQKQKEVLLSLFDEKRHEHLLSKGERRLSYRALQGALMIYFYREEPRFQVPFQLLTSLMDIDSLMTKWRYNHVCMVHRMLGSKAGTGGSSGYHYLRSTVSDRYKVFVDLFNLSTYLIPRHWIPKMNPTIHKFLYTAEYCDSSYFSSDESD
UniProt P14902, whole entry P110S/E119G: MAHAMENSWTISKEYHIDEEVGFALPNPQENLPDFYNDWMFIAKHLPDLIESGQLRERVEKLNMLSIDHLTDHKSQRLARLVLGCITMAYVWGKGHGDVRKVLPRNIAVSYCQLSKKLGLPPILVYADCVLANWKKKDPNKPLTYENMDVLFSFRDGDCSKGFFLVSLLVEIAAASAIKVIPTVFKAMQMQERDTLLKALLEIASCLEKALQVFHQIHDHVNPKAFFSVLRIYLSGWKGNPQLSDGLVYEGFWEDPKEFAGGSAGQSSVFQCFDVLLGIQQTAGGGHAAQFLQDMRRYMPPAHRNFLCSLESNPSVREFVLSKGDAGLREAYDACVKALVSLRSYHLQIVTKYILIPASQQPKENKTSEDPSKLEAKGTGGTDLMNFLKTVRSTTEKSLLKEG

In US9617272B2, “Tricyclic compounds as inhibitors of immunosuppression mediated by tryptophan metabolization” (NewLink Genetics Corporation, priority 2013, dated 2017):

Legend:
[1] = target: purified human TDO protein (Homo sapiens (Human), UniProt P48775); assay: Enzymatic TDO assay; assay type: biochemical
Procedure: Differently from the IDO activity assay, no methylene blue is added to the assay. The inhibitors were initially diluted in DMSO at 100 mM and were diluted in potassium phosphate 50 mM, added to the reaction mixture at final concentrations raging from 300 μM to 5 nM and preincubated with the enzyme for 5 min at 25° C. The reaction was started by addition of L-tryptophan to 200 μM and incubated 15 min at 37° C. The reaction was stopped by addition of 0.5 vol of 30% trichloroacetic acid and incubated 30 min at 60° C. to hydrolyze N-formylkynurenine to kynurenine. The reaction was centrifuged at 3400 g for 5 min to remove precipitated protein and the supernatant was reacted with 2% (w/v) of p-dimethylaminobenzaldehyde in acetic acid. The reaction was incubated 10 min at 25° C. and read at 480 nm in a spectrophotometer. Control samples with no TDO inhibitor, or with no TDO enzyme were used as controls to set the parameters for the non-linear regressions necessary for determination of the IC50 for each compound. Nonlinear regressions and determination of the IC50 values were performed using the GraphPad Prism 4 software.

[2] = target: purified human IDO protein (Homo sapiens (Human), UniProt P14902); assay: Enzymatic IDO assay; assay type: biochemical
Procedure: Expression vectors for human indoleamine-2,3-dioxygenase (IDO) protein were prepared by amplification of a 1219 bp fragment of the sequence present in vector phIDO6His cDNA with primers 5′-ggagcatgcta[…]-3′ (SEQ ID NO: 1) and 5′gagagatct[…]-3′ (SEQ ID NO: 2) and cloning the SphI-BglII 1213 bp fragment into pQE70 (Qiagen), to yield vector pQE70-hIDO. This construct adds 2 extra amino acids and a 6-Histidine tag to the C-terminus of the natural human IDO protein while preserving intact the natural start codon and N-terminus amino acid sequence.
Plasmid pQE70-hIDO was transformed into M15(pREP4) cells (Qiagen) and clones were selected in LB-agar plates supplemented with carbenicillin 50 μg/mL and kanamycin 30 μg/mL. Protein expression was carried out by growing an overnight culture of the M15pREP4/pQE70-hIDO clone in 100 mL LB supplemented with 100 μg/mL carbenicillin, 50 μg/mL kanamycin and 50 μg/mL of L-tryptophan (LBCKT medium). 40 mL of this culture were inoculated into 750 mL of LBCKT for 4 hours at 37° C. […]
The inhibitors were initially diluted in DMSO at 100 mM and were diluted in potassium phosphate 50 mM, added to the reaction mixture at final concentrations raging from 1 mM to 5 nM and preincubated with the enzyme for 5 min at 25° C. […] The reaction was incubated 10 min at 25° C. and read at 480 nm in a spectrophotometer.

IC50 [1]	Compound	IC50 [2]
10 to 100 µM	Cc1ccc(NC(=O)N2CCC(C(O)CC3c4ccccc4-c4cnnn43)CC2)cc1 (stereo not drawn) [Compound 67, 4-(2-(8H-[1,2,3]triazolo[5,1-α]isoindol-8-yl)-1-hydroxyethyl)-N-(p-tolyl)piperidine-1-carboxamide]	–
–	OC(CC1c2ccccc2-n2cncc21)C1CCCCC1 (centres unmarked) [Compound 70, 1-cyclohexyl-2-(9H-imidazo[1,5-a]indol-9-yl)ethan-1-ol]	< 1 µM
